Key:
human SGLT2 = human SGLT2 (Homo sapiens, UniProt P31639); experiment: Assay for SGLT2 inhibition (14C-AMG uptake in CHOK1 cells expressing human SGLT2); settings: 14C-AMG uptake 0.5 mM, 2 hours at 37° C.
Sprague-Dawley (SD) rats = experiment: Urinary glucose excretion test in rats; settings: male SD rats, 30 mg/kg oral gavage, urine collected for 24 hours; daily amount of glucose excreted per individual

The chains behind the UniProt entries cited, without tags or fusion partners.
UniProt P31639, whole entry: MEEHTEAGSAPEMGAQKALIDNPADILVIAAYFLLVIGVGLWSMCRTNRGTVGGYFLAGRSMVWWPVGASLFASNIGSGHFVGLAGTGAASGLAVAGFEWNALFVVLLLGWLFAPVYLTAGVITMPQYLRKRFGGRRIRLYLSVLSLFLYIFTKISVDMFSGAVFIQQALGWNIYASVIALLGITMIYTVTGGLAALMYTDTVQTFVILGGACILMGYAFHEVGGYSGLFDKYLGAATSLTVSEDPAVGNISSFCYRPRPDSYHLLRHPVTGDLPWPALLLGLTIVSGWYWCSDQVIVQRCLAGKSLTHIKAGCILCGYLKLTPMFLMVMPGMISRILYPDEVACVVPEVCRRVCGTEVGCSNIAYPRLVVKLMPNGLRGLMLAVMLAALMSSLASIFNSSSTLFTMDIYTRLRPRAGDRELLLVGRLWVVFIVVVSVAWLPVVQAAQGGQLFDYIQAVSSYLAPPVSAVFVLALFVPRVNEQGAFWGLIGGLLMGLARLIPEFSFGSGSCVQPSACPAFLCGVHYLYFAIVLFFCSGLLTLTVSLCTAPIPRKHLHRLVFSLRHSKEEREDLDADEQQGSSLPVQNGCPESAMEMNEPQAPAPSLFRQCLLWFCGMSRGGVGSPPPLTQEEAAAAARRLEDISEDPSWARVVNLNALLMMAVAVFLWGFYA

Row | SMILES | IC50 (human SGLT2) [nM] | Urinary glucose (Sprague-Dawley (SD) rats)
1 | OC[C@H]1O[C@@H](c2ccc(Cl)c(Cc3ccc(-c4ccc(F)c(F)c4)s3)c2)[C@H](O)[C@@H](O)[C@@H]1O | 8.7 | –
2 | O=[N+]([O-])c1ccc(-c2ccc(Cc3cc([C@@H]4O[C@H](CO)[C@@H](O)[C@H](O)[C@H]4O)ccc3Cl)s2)cc1 | 3.3 | –
3 | CCOc1ccc2sc(Cc3cc([C@@H]4O[C@H](CO)[C@@H](O)[C@H](O)[C@H]4O)ccc3Cl)cc2c1 | 5.6 | –
4 | OC[C@H]1O[C@@H](c2ccc(Cl)c(Cc3cc4cc(OCCF)ccc4s3)c2)[C@H](O)[C@@H](O)[C@@H]1O | 2.9 | B (2000 mg>B≧1000 mg)
5 | OC[C@H]1O[C@@H](c2ccc(Cl)c(Cc3ccc(-c4ccc(OC(F)F)cc4)s3)c2)[C@H](O)[C@@H](O)[C@@H]1O | 4.4 | B (2000 mg>B≧1000 mg)
6 | NC(=O)c1cccc(-c2ccc(Cc3cc([C@@H]4O[C@H](CO)[C@@H](O)[C@H](O)[C@H]4O)ccc3Cl)s2)c1 | 1.7 | –
7 | OC[C@H]1O[C@@H](c2ccc(Cl)c(Cc3ccc(-c4ccc(F)s4)s3)c2)[C@H](O)[C@@H](O)[C@@H]1O | 5.6 | A (A≧2000 mg)
8 | CC(C)NC(=O)c1ccc(-c2ccc(Cc3cc([C@@H]4O[C@H](CO)[C@@H](O)[C@H](O)[C@H]4O)ccc3Cl)s2)cc1 | 2.3 | –
9 | OC[C@H]1O[C@@H](c2ccc(Cl)c(Cc3ccc(-c4cccc(Cl)n4)s3)c2)[C@H](O)[C@@H](O)[C@@H]1O | 3.6 | A (A≧2000 mg)
10 | OC[C@H]1O[C@@H](c2ccc(Cl)c(Cc3cc4ccc(OC(F)F)cc4s3)c2)[C@H](O)[C@@H](O)[C@@H]1O | 3.1 | A (A≧2000 mg)
11 | OC[C@H]1O[C@@H](c2ccc(Cl)c(Cc3ccc(-c4cccnc4F)s3)c2)[C@H](O)[C@@H](O)[C@@H]1O | 2.5 | A (A≧2000 mg)
12 | OC[C@H]1O[C@@H](c2ccc(Cl)c(Cc3ccc(-c4cccc(OC(F)F)c4)s3)c2)[C@H](O)[C@@H](O)[C@@H]1O | 5.5 | B (2000 mg>B≧1000 mg)
13 | N#Cc1cccc(-c2ccc(Cc3cc([C@@H]4O[C@H](CO)[C@@H](O)[C@H](O)[C@H]4O)ccc3Cl)s2)n1 | 1.2 | B (2000 mg>B≧1000 mg)
14 | N#Cc1cc(-c2ccc(Cc3cc([C@@H]4O[C@H](CO)[C@@H](O)[C@H](O)[C@H]4O)ccc3Cl)s2)ccc1F | 4.3 | –
15 | COc1cccc(-c2ccc(Cc3cc([C@@H]4O[C@H](CO)[C@@H](O)[C@H](O)[C@H]4O)ccc3Cl)s2)c1 | 2.4 | –
16 | N#Cc1ccc(-c2ccc(Cc3cc([C@@H]4O[C@H](CO)[C@@H](O)[C@H](O)[C@H]4O)ccc3Cl)s2)cc1 | 1.7 | A (A≧2000 mg)
17 | Cc1cc(-c2ccc(Cc3cc([C@@H]4O[C@H](CO)[C@@H](O)[C@H](O)[C@H]4O)ccc3Cl)s2)on1 | 4.6 | –
